Only a part is listed here, and it is no random draw. Activity calls are given as the source filed them. Cut-off read from the data, not from the text of the source: active = response mostly above about 7.3% (no sharp cut-off); inactive = mostly below about 5.4%.
Experiment: regulators of yeast V-ATPase proton pumping, primary screen, pHLuorin cytosolic pH fluorescence (AID 504577); note: actives read high
Settings: S. cerevisiae, at 10 µM, stronger effect = higher value

Row | SMILES | response
1 | CCOC(=O)N1CCC(Nc2cccc(C)c2)CC1 | inactive: 0.23%
2 | COc1cc(C(=O)NCC2(N(C)C)CCCCC2)ccc1OC(F)F | inactive: -1.8%
3 | CCCCOc1ccc(C(=O)NCC2(N3CCOCC3)CCCCC2)cc1 | inactive: -5.04%
4 | O=P1(N(CCCl)CCCl)SCCCS1 | inactive: -3.72%
5 | O=C(NCC1(N2CCCCC2)CCCCC1)c1ccc(F)cc1 | inactive: -2.82%
6 | CCOC(=O)N1CCC(Nc2ccc(F)cc2)CC1 | inactive: 1.19%
7 | COc1ccc(NC2CCN(CCc3ccccc3)CC2)c(OC)c1 | inactive: 6.72%
8 | O=C1CCN(Cc2ccccc2)CC1 | inactive: 7.7%
9 | CCOc1ccc(C)cc1CN(CCCl)CCCl | inactive: 0%
10 | N#CC1(Nc2ccccc2)CCN(Cc2ccccc2)CC1 | inactive: -1.65%
11 | O=C(NCC1(N2CCCCC2)CCCCC1)c1ccc(Cl)s1 | inactive: -4.08%
12 | O=C(OC1CN2CCC1CC2)C1c2ccccc2Oc2ccccc21 (stereo not given) | inactive: 2.56%
13 | COc1ccc(Cl)cc1C(=O)NCC1(N2CCOCC2)CCCCC1 | inactive: -1.36%
14 | CCOC(=O)N1CCC(Nc2ccc(OC)cc2)CC1 | inactive: 1.4%
15 | O=C(NCC1(N2CCCCC2)CCCCC1)c1ccc(Cl)nc1 | inactive: -1.35%
16 | Cc1cc(C)cc(N(C(=O)c2ccccc2)C2CCN(C(=O)OC(C)(C)C)CC2)c1 | inactive: -1.08%
17 | O=C(NCC1(N2CCOCC2)CCCCC1)c1cc2ccccc2o1 | inactive: -1.81%
18 | CSc1ccccc1C(=O)NCC1(N2CCCCC2)CCCCC1 | inactive: -1.56%
19 | Cc1cccc(NC2(C#N)CCN(Cc3ccccc3)CC2)c1 | inactive: -0.79%
20 | COc1ccc(C(=O)NCC2(N3CCCCC3)CCCCC2)cc1 | inactive: -0.29%
21 | COc1ccc(C(=O)NCC2(N3CCCCC3)CCCCC2)c(OC)c1OC | inactive: -0.81%
22 | CC(C)(C)OC(=O)N1CCC(N(C(=O)c2ccccc2)c2ccc(F)cc2)CC1 | inactive: -1.81%
23 | O=C(NCC1(N2CCCCC2)CCCCC1)c1ccc(=O)[nH]c1 | inactive: -2.5%
24 | O=C(NCC1(N2CCCCC2)CCCCC1)c1cccs1 | inactive: -5.73%
25 | Cc1ccc(C(=O)NCC2(N(C)C)CCCCC2)o1 | inactive: 1.71%

Row | SMILES | response
26 | CCCOc1ccc(C(=O)NCC2(N(C)C)CCCCC2)cc1OC | inactive: 0.68%
27 | CN1CCC(Nc2cccc(F)c2)CC1 | inactive: 6.43%
28 | O=C(NCC1(N2CCCCC2)CCCCC1)c1cncc(Br)c1 | inactive: 4.11%
29 | COc1cc(OC)c(C(=O)NCC2(N(C)C)CCCCC2)cc1OC | inactive: -4.49%
30 | O=C(NCC1(N2CCOCC2)CCCCC1)c1cc(F)c(F)cc1Cl | inactive: -1.51%
31 | CC(C)c1ccc(NC2CCN(C(=O)OC(C)(C)C)CC2)cc1 | inactive: -3.62%
32 | COc1ccc(CN(CCCl)CCCl)cc1Cl | inactive: -0.39%
33 | CN(C)c1cccc(C(=O)NCC2(N3CCCCC3)CCCCC2)c1 | inactive: 3.68%
34 | O=C(NCC1(N2CCOCC2)CCCCC1)c1cc(=O)[nH]c2ccccc12 | inactive: -1.27%
35 | COc1cc(C(=O)NCC2(N3CCCCC3)CCCCC2)ccc1OC(F)F | inactive: 2%
36 | COc1ccc(NC2CCN(C(=O)OC(C)(C)C)CC2)cc1 | inactive: 0.9%
37 | CC(C)c1ccc(C(=O)NCC2(N3CCOCC3)CCCCC2)cc1 | inactive: -1.21%
38 | CN1CCN(CCOC(=O)C(O)(c2ccccc2)c2ccccc2)CC1 | inactive: 1.83%
39 | O=C(NCC1(N2CCCCC2)CCCCC1)c1cccc(C(F)(F)F)c1 | inactive: 4.29%
40 | CCN1CCC(Nc2ccc(Cl)cc2)CC1 | inactive: 2.48%
41 | N#CC1(Nc2ccccc2)CCN(CCc2ccccc2)CC1 | inactive: 1.57%
42 | CSc1ccc(C(=O)NCC2(N3CCOCC3)CCCCC2)cc1 | inactive: -0.27%
43 | O=C(NCC1(N2CCCCC2)CCCCC1)c1cccc([N+](=O)[O-])c1 | inactive: -1.73%
44 | O=C(NCC1(N2CCCCC2)CCCCC1)c1ccc(OC(F)F)cc1 | inactive: -1.77%
45 | CN(C)C1(CNC(=O)c2cccc(C#N)c2)CCCCC1 | inactive: 0.12%
46 | c1ccc(CN2CCC(Nc3ccccc3)CC2)cc1 | inactive: 2.24%
47 | CCCN1CCC(Nc2cc(OC)cc(OC)c2)CC1 | inactive: -2.79%
48 | Cc1cc(N(CCCl)CCCl)ccc1C=O | inactive: -0.64%
49 | N#Cc1ccc(C(=O)NCC2(N3CCCCC3)CCCCC2)cc1 | inactive: 3.72%
50 | CC(C)(C)OC(=O)N1CCC(N(C(=O)c2ccccc2)c2ccc(Cl)cc2)CC1 | inactive: 2.76%

Row | SMILES | response
51 | O=C(OC1CN2CCC1CC2)C1c2ccccc2C=Cc2ccccc21 (stereo not given) | inactive: -0.78%
52 | CCOC(=O)N1CCC(Nc2ccc(C)cc2)CC1 | inactive: 1.74%
53 | N/C(=N\O)c1c(N)no[n+]1[O-] | inactive: 1.73%
54 | COc1ccc(C(=O)NCC2(N3CCOCC3)CCCCC2)cc1OC | inactive: 0.82%
55 | COc1cc(C(=O)NCC2(N3CCOCC3)CCCCC2)cc(OC)c1C | inactive: -1.92%
56 | O=C(NCC1(N2CCOCC2)CCCCC1)c1cc(Br)ccc1Cl | inactive: 0.07%
57 | CN1CCC(Nc2ccc(Cl)cc2)CC1 | inactive: -1.62%
58 | COc1cccc(C(=O)N(c2cc(C)cc(C)c2)C2CCN(C(=O)OC(C)(C)C)CC2)c1 | inactive: 0.71%
59 | COc1cc(OC)cc(C(=O)NCC2(N3CCOCC3)CCCCC2)c1 | inactive: -0.93%
60 | CCC(CO)(C(=O)OC1CN2CCC1CC2)c1ccccc1 (stereo not given) | inactive: -1.13%
61 | CC(C)(C)OC(=O)N1CCC(Nc2ccccc2)CC1 | inactive: 2.74%
62 | O=C(O)C1(Nc2ccccc2)CCN(Cc2ccccc2)CC1 | inactive: -0.87%
63 | CCCOc1ccc(C(=O)NCC2(N(C)C)CCCCC2)cc1 | inactive: -1.13%
64 | CCOc1ncccc1C(=O)NCC1(N2CCOCC2)CCCCC1 | inactive: -0.03%
65 | CN1CCC(Nc2ccc(F)c(Cl)c2)CC1 | inactive: -0.55%
66 | O=C(NCC1(N2CCCCC2)CCCCC1)c1ccco1 | inactive: -1.56%
67 | CN(C)c1ccc(C(=O)NCC2(N3CCCCC3)CCCCC2)cc1 | inactive: 0.93%
68 | Cn1c(=O)[nH]cc(N(CCCl)CCCl)c1=O | inactive: 8%
69 | Cc1ccccc1NC1(C#N)CCN(Cc2ccccc2)CC1 | inactive: 3.23%
70 | CCN1CCC(Nc2cccc(F)c2)CC1 | inactive: 8.38%
71 | Cc1ccc(C(=O)NCC2(N3CCCCC3)CCCCC2)o1 | inactive: 2.82%
72 | Fc1ccccc1NC1CCN(Cc2ccccc2)CC1 | inactive: -1.64%
73 | Cc1ccc(NC2(C#N)CCN(Cc3ccccc3)CC2)cc1 | inactive: -4.58%
74 | CC(=O)N(c1ccccc1)C1CCNCC1 | inactive: 1.64%
75 | COc1cc(OC)cc(C(=O)NCC2(N3CCCCC3)CCCCC2)c1 | inactive: -1.35%
